Binding of CDR-mutated scFvs to a peptide of the spike HR2 region

Target: peptide PDVDLGDISGINAS, taken from heptad repeat 2 (HR2) of SARS-CoV-2 spike.

Each scFv is VL, a (GGGGS)3 linker, VH, as in the parent Ab-91, and differs from it in the CDRs of the heavy chain only.
VL: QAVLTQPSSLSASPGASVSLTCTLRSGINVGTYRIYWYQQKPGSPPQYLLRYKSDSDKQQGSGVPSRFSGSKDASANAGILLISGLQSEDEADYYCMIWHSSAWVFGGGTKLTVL
VH: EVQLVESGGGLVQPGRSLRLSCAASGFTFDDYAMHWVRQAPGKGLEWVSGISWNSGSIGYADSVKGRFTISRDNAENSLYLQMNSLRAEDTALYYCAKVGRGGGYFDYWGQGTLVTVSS

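Phage display of a naive human antibody library on the peptide gave the parent. AAYL51 was designed without a model: most single CDR substitutions and a random sample of double and triple ones. The scFvs were displayed on barcoded MATa yeast, the peptide on MATalpha yeast. Mating (16 h, 30 °C) was followed by selection of diploids and sequencing of their barcodes. Read counts were normalised to the haploid input and turned into Kd by a linear fit to BCL2-family pairs of known affinity, for each replicate. Mating was done three times.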

Changes read parent residue, position, new residue, counted from the first residue of the VH shown.
Values are apparent Kd, the geometric mean of the replicates that gave a signal; lower means stronger binding.
An entry "nd" has no value in the source: the pair was not observed among the diploids in any replicate. This suggests poor binding but is not conclusive.

With I58N Y60T V99L the result was nd (0 of 3 replicates; controls 0 of 9).
With F29D Y60W F106S the result was nd (0 of 3 replicates; controls 0 of 9).
With D30Y Y32P S55T the result was nd (0 of 3 replicates; controls 3 of 9).
With D30R D62Y G102H the result was 68 µM (2 of 3 replicates; controls 2 of 9).
With W53D G56L G103P the result was 4.3 µM (3 of 3 replicates; controls 1 of 9).
With F27S K65C G103T the result was nd (0 of 3 replicates; controls 1 of 9).
With G26W V99N the result was 9.4 µM (2 of 3 replicates; controls 2 of 9).
With T28M G56Y Y108T the result was 230 nM (3 of 3 replicates; controls 3 of 9).
With Y60T V99R D107Y the result was 17 µM (1 of 3 replicates; controls 1 of 9).
With H35I Y60S G104E the result was 52 µM (2 of 3 replicates; controls 5 of 9).
With N54T S55A the result was nd (0 of 3 replicates; controls 0 of 9).
With G59Q A61L G100N the result was nd (0 of 3 replicates; controls 1 of 9).
With Y32F V64E D107H the result was 110 µM (1 of 3 replicates; controls 0 of 9).
With N54Q G59N S63V the result was nd (0 of 3 replicates; controls 0 of 9).
With F29V Y60S K65C the result was 25 µM (1 of 3 replicates; controls 2 of 9).
With G26S A61Y F106R the result was nd (0 of 3 replicates; controls 0 of 9).
With S57N A61N V99W the result was 39 µM (2 of 3 replicates; controls 4 of 9).
With F29T I58G G102N the result was 87 µM (2 of 3 replicates; controls 5 of 9).
With M34V I58M Y105I the result was 130 nM (3 of 3 replicates; controls 4 of 9).
With F29I Y32E S52T the result was 73 µM (1 of 3 replicates; controls 1 of 9).
With A33T G50S I51V the result was nd (0 of 3 replicates; controls 1 of 9).
With Y60V A61E D107W the result was 23 µM (3 of 3 replicates; controls 1 of 9).
With F27Y D31A G103D the result was nd (0 of 3 replicates; controls 1 of 9).
With G26N G59K A61R the result was 960 nM (1 of 3 replicates; controls 0 of 9).
With S57T G59R the result was 7.5 µM (2 of 3 replicates; controls 3 of 9).

The remaining entries, values ahead:

100 µM (2 of 3 replicates; controls 2 of 9): A33M Y60S V64T.
770 nM (3 of 3 replicates; controls 5 of 9): D30H Y32A S55P.
nd (0 of 3 replicates; controls 0 of 9): F29W A33I S52I.
250 nM (3 of 3 replicates; controls 2 of 9): F29L V99T G102W.
92 µM (1 of 3 replicates; controls 2 of 9): F29G A33Y V99A.
13 µM (1 of 3 replicates; controls 3 of 9): S63K F106H.
91 µM (1 of 3 replicates; controls 0 of 9): M34I S57Y D62K.
nd (0 of 3 replicates; controls 1 of 9): A61L V64C G100N.
270 µM (2 of 3 replicates; controls 4 of 9): F27E S57R G102M.
nd (0 of 3 replicates; controls 1 of 9): T28N I58G G100Q.
140 µM (3 of 3 replicates; controls 1 of 9): H35A A61K G102N.
67 µM (3 of 3 replicates; controls 6 of 9): G59D Y60C S63V.
50 µM (1 of 3 replicates; controls 3 of 9): F29S I58N G104A.
2.0 µM (1 of 3 replicates; controls 0 of 9): F27C F29R G102W.
nd (0 of 3 replicates; controls 0 of 9): N54M Y105P F106Q.
nd (0 of 3 replicates; controls 0 of 9): Y60G D62K F106Q.
nd (0 of 3 replicates; controls 1 of 9): A33N S55P Y60R.
2.0 nM (3 of 3 replicates; controls 2 of 9): D31P G102F F106A.
46 µM (1 of 3 replicates; controls 0 of 9): D30E Y105L D107G.
18 µM (2 of 3 replicates; controls 6 of 9): K65Y G100S Y108W.
24 µM (3 of 3 replicates; controls 4 of 9): G59W K65T Y105D.
7.5 µM (1 of 3 replicates; controls 2 of 9): G59R A61Q G104R.
18 µM (1 of 3 replicates; controls 1 of 9): T28Q F29S I58W.
160 nM (3 of 3 replicates; controls 4 of 9): T28Q D30K G102Q.
51 µM (1 of 3 replicates; controls 0 of 9): G59R D62S Y105Q.
nd (0 of 3 replicates; controls 0 of 9): G59D G103Y D107H.

Excerpt, the final 3 entries:

changes,Kd (apparent),replicates with signal,signal with controls
T28Q D30K G102Q,160 nM,3/3,4/9
G59R D62S Y105Q,51 µM,1/3,0/9
G59D G103Y D107H,nd,0/3,0/9

In this assay the parent's reference entry averaged 72 nM; its copy inside this library read 7.5 nM.
As a blank, each scFv also met three strains without target: over library AAYL51, 21% of these pairings were detected, typically at 34 µM and seldom below 1.8 µM. For each scFv, signals with the empty controls are counted beside the result.

Reference: Engelhart et al. 2022, doi:10.1038/s41597-022-01779-4. File: FLAb, binding data.